This is a selection; strong and weak results do not stand in their true shares. Activity calls are given as the source filed them. Calls come from the whole dose curve; as a rule, active = well fitted inhibition curve with a large enough effect in the polarisation, with a control signal flat (not every such curve was filed as active); inconclusive = small, poorly fitted or top-dose-only effect, or effect the other way, or a change in a side signal; inactive = no such curve, though single readings can be large or run the other way; the % refers to the polarisation.
These molecules were tested against Histone-lysine N-methyltransferase 2A (Homo sapiens) (UniProt Q03164) (assay: qHTS Fluorescence Polarization Assay for Inhibitors of MLL CXXC domain - DNA interaction). Details: MLL-CXXC / FITC-HOXA9 DNA fluorescence polarization; at 115 µM (top of the series) unless noted.

Amino acid sequences for entries named in this document (tags omitted).
UniProt Q03164, whole entry: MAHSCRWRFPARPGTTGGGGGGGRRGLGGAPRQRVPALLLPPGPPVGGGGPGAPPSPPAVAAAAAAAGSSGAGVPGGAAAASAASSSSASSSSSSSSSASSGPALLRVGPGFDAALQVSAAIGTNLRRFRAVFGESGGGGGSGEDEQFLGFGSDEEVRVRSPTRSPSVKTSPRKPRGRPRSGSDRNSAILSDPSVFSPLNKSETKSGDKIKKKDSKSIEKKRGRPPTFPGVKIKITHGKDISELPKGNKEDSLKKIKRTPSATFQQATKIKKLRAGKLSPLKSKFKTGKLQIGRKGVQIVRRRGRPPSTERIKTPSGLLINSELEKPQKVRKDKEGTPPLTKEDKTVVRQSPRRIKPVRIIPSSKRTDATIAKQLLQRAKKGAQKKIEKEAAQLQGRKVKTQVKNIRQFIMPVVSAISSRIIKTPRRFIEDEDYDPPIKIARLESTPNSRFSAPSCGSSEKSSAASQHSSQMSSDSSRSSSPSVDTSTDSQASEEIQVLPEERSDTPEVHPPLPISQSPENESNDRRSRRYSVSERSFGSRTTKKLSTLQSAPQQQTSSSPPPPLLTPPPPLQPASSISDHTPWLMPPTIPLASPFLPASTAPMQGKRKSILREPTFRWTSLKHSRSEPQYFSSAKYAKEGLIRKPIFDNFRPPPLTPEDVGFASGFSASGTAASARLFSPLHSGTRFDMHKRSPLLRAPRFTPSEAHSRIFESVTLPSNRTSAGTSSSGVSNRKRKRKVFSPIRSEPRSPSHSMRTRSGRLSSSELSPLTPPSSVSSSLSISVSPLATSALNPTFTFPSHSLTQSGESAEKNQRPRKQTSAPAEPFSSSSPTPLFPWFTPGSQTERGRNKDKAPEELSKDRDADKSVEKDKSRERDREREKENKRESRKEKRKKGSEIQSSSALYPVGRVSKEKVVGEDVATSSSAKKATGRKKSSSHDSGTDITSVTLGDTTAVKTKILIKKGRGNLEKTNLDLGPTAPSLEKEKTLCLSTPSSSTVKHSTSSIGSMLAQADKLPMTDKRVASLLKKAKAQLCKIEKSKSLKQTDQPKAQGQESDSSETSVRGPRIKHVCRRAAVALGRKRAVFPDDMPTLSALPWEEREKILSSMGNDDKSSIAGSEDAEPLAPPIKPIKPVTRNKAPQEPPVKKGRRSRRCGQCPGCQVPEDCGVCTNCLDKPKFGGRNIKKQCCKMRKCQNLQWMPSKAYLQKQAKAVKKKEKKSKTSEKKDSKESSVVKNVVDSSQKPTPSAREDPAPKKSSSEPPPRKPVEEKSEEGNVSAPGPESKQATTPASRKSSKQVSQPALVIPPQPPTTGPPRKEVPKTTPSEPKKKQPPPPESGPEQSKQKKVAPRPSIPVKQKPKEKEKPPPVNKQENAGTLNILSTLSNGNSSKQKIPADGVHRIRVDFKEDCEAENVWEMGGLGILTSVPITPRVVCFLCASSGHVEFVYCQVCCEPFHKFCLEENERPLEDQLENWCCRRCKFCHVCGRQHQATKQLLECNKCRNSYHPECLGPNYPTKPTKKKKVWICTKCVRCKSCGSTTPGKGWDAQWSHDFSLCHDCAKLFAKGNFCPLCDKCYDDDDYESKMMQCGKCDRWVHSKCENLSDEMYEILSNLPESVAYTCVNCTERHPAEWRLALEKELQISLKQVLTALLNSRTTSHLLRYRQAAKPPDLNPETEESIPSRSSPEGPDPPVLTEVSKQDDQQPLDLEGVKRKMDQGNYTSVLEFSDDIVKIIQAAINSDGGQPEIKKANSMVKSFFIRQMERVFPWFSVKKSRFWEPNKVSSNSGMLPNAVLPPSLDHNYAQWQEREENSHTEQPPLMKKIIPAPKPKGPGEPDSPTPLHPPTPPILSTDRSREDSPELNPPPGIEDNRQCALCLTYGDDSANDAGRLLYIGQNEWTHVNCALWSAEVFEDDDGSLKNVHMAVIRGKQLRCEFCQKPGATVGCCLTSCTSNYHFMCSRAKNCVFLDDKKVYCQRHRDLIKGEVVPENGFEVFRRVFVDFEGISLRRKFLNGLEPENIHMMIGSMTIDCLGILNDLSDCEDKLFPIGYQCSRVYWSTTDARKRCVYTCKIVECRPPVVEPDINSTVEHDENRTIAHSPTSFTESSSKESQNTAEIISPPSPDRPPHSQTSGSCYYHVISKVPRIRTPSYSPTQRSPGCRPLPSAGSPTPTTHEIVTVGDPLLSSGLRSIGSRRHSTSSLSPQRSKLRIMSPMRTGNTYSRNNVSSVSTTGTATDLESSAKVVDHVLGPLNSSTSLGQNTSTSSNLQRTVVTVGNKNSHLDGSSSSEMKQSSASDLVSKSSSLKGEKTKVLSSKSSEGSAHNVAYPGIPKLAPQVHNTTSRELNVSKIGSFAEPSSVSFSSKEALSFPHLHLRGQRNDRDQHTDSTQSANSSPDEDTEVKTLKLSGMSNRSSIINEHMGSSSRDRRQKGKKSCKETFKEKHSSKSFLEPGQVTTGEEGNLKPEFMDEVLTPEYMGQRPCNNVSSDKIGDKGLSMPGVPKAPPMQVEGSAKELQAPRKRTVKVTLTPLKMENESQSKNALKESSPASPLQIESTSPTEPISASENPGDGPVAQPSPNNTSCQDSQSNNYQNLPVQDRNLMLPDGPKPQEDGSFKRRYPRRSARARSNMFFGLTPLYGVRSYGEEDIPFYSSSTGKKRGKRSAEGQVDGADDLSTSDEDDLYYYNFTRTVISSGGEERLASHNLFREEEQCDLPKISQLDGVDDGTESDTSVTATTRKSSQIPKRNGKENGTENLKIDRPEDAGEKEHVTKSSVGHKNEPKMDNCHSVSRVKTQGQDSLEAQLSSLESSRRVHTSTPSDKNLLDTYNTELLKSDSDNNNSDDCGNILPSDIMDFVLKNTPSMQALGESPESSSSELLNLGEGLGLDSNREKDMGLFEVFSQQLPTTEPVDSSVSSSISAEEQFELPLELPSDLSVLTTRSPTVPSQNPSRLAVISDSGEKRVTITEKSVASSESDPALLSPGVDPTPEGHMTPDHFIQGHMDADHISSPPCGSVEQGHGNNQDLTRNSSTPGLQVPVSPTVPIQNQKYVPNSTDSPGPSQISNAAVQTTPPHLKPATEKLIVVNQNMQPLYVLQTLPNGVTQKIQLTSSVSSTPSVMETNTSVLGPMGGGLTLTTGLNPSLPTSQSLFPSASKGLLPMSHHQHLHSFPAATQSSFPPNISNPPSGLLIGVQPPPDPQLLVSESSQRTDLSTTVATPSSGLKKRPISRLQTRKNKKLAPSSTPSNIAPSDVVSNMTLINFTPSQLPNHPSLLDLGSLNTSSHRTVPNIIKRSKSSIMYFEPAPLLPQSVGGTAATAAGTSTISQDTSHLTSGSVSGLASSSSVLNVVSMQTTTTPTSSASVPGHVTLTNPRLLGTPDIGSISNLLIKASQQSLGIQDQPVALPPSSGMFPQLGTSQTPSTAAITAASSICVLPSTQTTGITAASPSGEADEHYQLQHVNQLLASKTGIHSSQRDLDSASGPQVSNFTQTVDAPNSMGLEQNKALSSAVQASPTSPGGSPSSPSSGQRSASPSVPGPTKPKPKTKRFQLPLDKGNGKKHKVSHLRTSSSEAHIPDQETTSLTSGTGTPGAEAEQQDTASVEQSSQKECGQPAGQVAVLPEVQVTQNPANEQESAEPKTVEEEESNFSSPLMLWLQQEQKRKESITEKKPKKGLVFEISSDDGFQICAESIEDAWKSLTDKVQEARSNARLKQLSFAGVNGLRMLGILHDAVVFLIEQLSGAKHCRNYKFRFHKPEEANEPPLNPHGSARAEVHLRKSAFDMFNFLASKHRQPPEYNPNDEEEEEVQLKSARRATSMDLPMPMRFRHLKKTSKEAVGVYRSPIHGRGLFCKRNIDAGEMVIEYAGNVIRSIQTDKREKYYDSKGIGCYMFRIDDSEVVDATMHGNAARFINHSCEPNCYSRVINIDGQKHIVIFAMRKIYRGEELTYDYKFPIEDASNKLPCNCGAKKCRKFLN

Structure (SMILES) | activity change, negative = inhibition
C/C1=C2N=C(/C=C3N=C(/C(C)=C4\[N-][C@@](C)([C@H]5N=C1[C@@](C)(CCC(=O)NC[C@H](C)OP(=O)([O-])O[C@@H]1[C@H](O)[C@H](n6cnc7cc(C)c(C)cc76)O[C@@H]1CO)[C@@H]5CC(N)=O)[C@](C)(CC(N)=O)[C@H]4CCC(N)=O)[C@@](C)(CC(N)=O)[C@@H]\3CCC(N)=O)C(C)(C)[C@@H]/2CCC(N)=O.[C-]#N.[Co+3] | inactive: -18.1% [at 51.4 µM]
CC(C)OP(=O)(F)OC(C)C | inactive: -0.581%
CCOC(=O)c1ccc(NP(C)(=O)Oc2ccc(Cl)cc2)cc1 (stereo not given) | inactive: -1.6%
CP(=O)(OC12CC3CC(CC(C3)C1)C2)OC12CC3CC(CC(C3)C1)C2 | inactive: -2.45%
CC(C)(C)c1ccc(OP(C)(=O)O)cc1 | inactive: -9.61%
COc1ccccc1OP(C)(=O)Nc1ccccc1Br (stereo not given) | inactive: -2.27%
CP(=O)(Nc1ccc(Cl)cc1)Oc1ccc(F)cc1 (stereo not given) | inactive: 1.69%
COc1ccccc1OP(C)(=O)Nc1c(C)n(C)n(-c2ccccc2)c1=O (stereo not given) | inactive: -10.7%
O=C(OCCCN1CCCC1)C(O)(c1ccccc1)C1CCCCC1 (stereo not given) | inactive: -1.73%
OCCSCCO | inactive: -4.56%
CP(=O)(Oc1ccccc1)N1CCOC1=O (stereo not given) | inactive: 1.12%
CCc1ccc(OP(C)(=O)Nc2cccnc2)cc1 (stereo not given) | inactive: 0.0788%
CCN(CC)CC(O)COC(=O)C(O)(c1ccccc1)C1CCCCC1 (stereo not given) | inactive: -1.53%
COc1ccc(OP(C)(=O)Nc2ccc(Br)cc2)cc1 (stereo not given) | inactive: -5.69%
CP(=O)(Nc1ccccn1)Oc1ccccc1 (stereo not given) | inactive: 7.29%
COc1ccccc1OP(C)(=O)Nc1ccc(C)cc1C (stereo not given) | inactive: -3.17%
CCc1ccc(OP(C)(=O)O)cc1 | inactive: 3.84%
O=[N+]([O-])c1cc([N+](=O)[O-])c(Nc2ccccn2)c([N+](=O)[O-])c1 | inactive: 9.93%
Cc1c(NP(C)(=O)Oc2ccc(C(C)C)cc2)c(=O)n(-c2ccccc2)n1C (stereo not given) | inactive: -5.4%
COc1ccc(OP(C)(=O)Nc2ccccn2)cc1 (stereo not given) | inactive: -3.83%
CN(C)CCOC(=O)C(O)(c1ccccc1)C1CCCC1 (stereo not given) | inactive: 6.02%
COc1ccccc1OP(C)(=O)Nc1ccc(Br)cc1 (stereo not given) | inactive: 2.78%
CP(=O)(OCCOc1ccccc1)OCCOc1ccccc1 | inactive: -1.01%
CP(=O)(Nc1ccc(Cl)cc1Cl)Oc1ccccc1 (stereo not given) | inactive: -0.385%
Cc1nc2ccc3ccccc3c2o1.O=[N+]([O-])c1cc([N+](=O)[O-])c(O)c([N+](=O)[O-])c1 | inactive: -7.05%

From PubChem BioAssay AID2662 (National Center for Advancing Translational Sciences (NCATS), 2010)
